Test results reported in patent publication US9040673B2, “Synthesis and identification of novel RSK-specific inhibitors” (University of Virginia Patent Foundation, priority 2009, dated 2015).

By UniProt entry, the sequences of proteins in these tests, tags left out. Residues count along the entry.
UniProt P51812, 1-397 limits assumed: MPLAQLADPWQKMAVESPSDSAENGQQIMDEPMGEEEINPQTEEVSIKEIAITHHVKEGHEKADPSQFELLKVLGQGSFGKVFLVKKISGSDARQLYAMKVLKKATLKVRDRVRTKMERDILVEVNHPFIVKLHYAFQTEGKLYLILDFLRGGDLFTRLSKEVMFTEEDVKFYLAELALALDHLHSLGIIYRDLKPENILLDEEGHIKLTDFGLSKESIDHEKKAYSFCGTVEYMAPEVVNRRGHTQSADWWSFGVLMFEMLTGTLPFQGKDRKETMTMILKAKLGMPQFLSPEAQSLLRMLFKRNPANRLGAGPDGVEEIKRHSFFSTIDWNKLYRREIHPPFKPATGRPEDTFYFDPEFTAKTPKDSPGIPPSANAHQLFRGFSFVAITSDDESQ

Target: RSK2 (Homo sapiens, UniProt P51812)
Test: in vitro kinase assay using recombinant, constitutively active RSK2
Settings: inhibitor 5 μM, 5 nM purified kinases, 30 mins, room temperature

SMILES: CC(=O)O[C@@H]1[C@@H](OC(C)=O)[C@@H](O)[C@H](Oc2c(-c3ccc(O)cc3)oc3cc(O)cc(O)c3c2=O)O[C@H]1C [SL0101, kaempferol 3-O-(3″,4″-di-O-acetyl-α-L-rhamnopyranoside)]
- inhibition of RSK2 activity among purified kinases: specifically inhibits RSK2 activity
